In the test the test system is Mouse embryonic fibroblasts (MEFs) from Ptpn11^D61G/+ mice. The note with it: 18 hr.

Results on 2 molecules are retold here after patent publication US10471059B2, “Compositions and methods of using tyrosine kinase inhibitors” (YALE UNIVERSITY, priority 2015, dated 2019).

Consider `Cc1nc(Nc2ncc(C(=O)Nc3c(C)cccc3Cl)s2)cc(N2CCN(CCO)CC2)n1.O` [Dasatinib, N-(2-chloro-6-methylphenyl)-2-[[6-[4-(2-hydroxyethyl)-1-piperazinyl]-2-methyl-4-pyrimidinyl]amino]-5-thiazole carboxamide monohydrate], for which, where the note is “MEFs from NS mice”, the “c-Src, ERK1/2 and PZR tyrosyl phosphorylation” value was “blocked”. Moreover, where the note is “MEFs from NS mice, immunoprecipitation”, the PZR/Shp2 complex formation entry is given as “disruption”. Where the note is “NS-derived MEFs”, the “Raf-1, MEK1, JNK and Akt phosphorylation” value was “inhibited”.
In the case of `Cc1ccc(NC(=O)c2ccc(CN3CCN(C)CC3)cc2)cc1Nc1nccc(-c2cccnc2)n1` [STI-571], the PZR tyrosyl phosphorylation result (MEFs from Ptpn11D61G/+ mice) is recorded as “ineffective”.
